Measured affinities in a library of Ab-14 light chain variants

Data: MIT Lincoln Laboratory AlphaSeq set, Li et al. 2023, doi:10.1038/s41467-023-39022-2, as distributed in FLAb.

Target peptide (SARS-CoV-2 spike, HR2 region): PDVDLGDISGINAS

Each scFv is VH, three GGGGS repeats, VL, as in the parent Ab-14, and differs from it in the CDRs of the light chain only.
VH: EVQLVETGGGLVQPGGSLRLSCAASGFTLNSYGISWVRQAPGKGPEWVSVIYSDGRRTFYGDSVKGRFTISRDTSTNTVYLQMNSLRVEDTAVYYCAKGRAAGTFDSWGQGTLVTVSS
VL: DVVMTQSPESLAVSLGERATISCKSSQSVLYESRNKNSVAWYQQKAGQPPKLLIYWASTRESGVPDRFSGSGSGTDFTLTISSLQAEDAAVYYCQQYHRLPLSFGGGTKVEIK

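The starting antibody came from a phage panning campaign against this peptide. Designed CDR sequences, proposed from the first random library and measured here. Their group label is 14L_Ctrl (Ctrl: baseline library sampled from a position-specific scoring matrix, with some repeated check sequences). Affinity was read by AlphaSeq, a pooled yeast mating assay with surface-displayed partners. After mating in shaken culture at 30 °C for 16 h, diploids were selected and their barcode pairs sequenced. Scores were corrected for input abundance and mapped to Kd with protein pairs of known affinity run in the same pool. There are six technical replicates.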

Substitutions are numbered in sequence along the VL above, starting at 1 (not Kabat). The read-out is the apparent dissociation constant on a log10 scale (nM): the lower, the stronger. Averages over replicates are reported, and they cover detected replicates only. "ND" means that the variant was in the library but no mating with the target was seen in that replicate; the authors take this as a sign of poor binding, and no number exists.

| # | changes | log10 Kd, replicates | mean, log10 nM | signal with controls |
|---|---|---|---|---|
| 1 | S26D V29L R34N W56E | 0.15 0.34 0.04 -0.01 0.09 0.04 | 0.11 | 2/18 (2.71) |
| 2 | L30Y E32S T59I R99C | 1.81 ND ND ND 2.96 ND | 2.38 | 2/18 (2.00) |
| 3 | T59W | ND ND ND ND ND ND | ND | 0/18 |
| 4 | S26P V29W L30F R34S K36A W56A | 0.27 -0.14 -0.42 -0.06 -0.39 -0.03 | -0.13 | 1/18 (1.75) |
| 5 | L30A W56S S58K | 1.97 1.93 1.55 1.85 1.75 1.91 | 1.83 | 0/18 |
| 6 | R34D | 1.62 1.20 1.67 0.61 1.66 0.43 | 1.20 | 0/18 |
| 7 | E32D W56G Q96S | 0.34 0.22 0.07 0.01 0.14 0.38 | 0.19 | 1/18 (3.20) |
| 8 | Q27E N37G A57D Y97K | ND ND ND ND ND ND | ND | 1/18 (1.67) |
| 9 | K24F S26Q E32D H98M | ND 2.18 1.44 3.08 1.45 2.78 | 2.19 | 1/18 (1.44) |
| 10 | K36N W56Q S62Y | 1.00 2.32 2.48 2.63 ND 2.77 | 2.24 | 1/18 (2.36) |
| 11 | Y31T W56H | 0.61 1.26 1.14 0.61 1.08 1.19 | 0.98 | 0/18 |
| 12 | N37S | 1.96 2.07 1.64 1.83 2.80 2.77 | 2.18 | 2/18 (3.09) |
| 13 | S26H W56N R60L R99S | 0.47 0.71 0.45 0.22 0.46 0.41 | 0.46 | 2/18 (2.39) |
| 14 | R34D W56G | -0.05 -0.21 -0.14 -0.11 -0.25 0.06 | -0.12 | 3/18 (2.89) |
| 15 | V29G Y31H S33H R34T | 0.76 ND 0.90 0.95 1.14 0.83 | 0.91 | 0/18 |
| 16 | Q96T H98I | ND ND ND ND ND ND | ND | 0/18 |
| 17 | S25F W56Q E61A | 0.01 -0.18 -0.19 -0.48 -0.12 -0.10 | -0.18 | 0/18 |
| 18 | Y31L E61N Y97V | ND ND ND ND 3.57 ND | 3.57 | 0/18 |
| 19 | W56N S103F | 0.70 0.44 0.45 0.42 0.34 0.50 | 0.47 | 2/18 (3.24) |
| 20 | W56A H98K | 0.81 0.58 0.53 0.48 0.26 0.54 | 0.53 | 2/18 (2.48) |
| 21 | E32D N35K Q96D | ND 1.59 ND 2.36 1.80 ND | 1.92 | 0/18 |
| 22 | S38E S58Y | ND ND ND ND ND ND | ND | 0/18 |
| 23 | S25V S28A R34F W56H A57M S62T R99W L100Q | ND ND ND ND ND 2.56 | 2.56 | 0/18 |
| 24 | H98Q | ND 1.90 ND ND 2.63 2.92 | 2.48 | 0/18 |
| 25 | V29K K36H | 2.14 2.31 2.34 4.24 ND ND | 2.76 | 0/18 |
| 26 | S25I S26Q K36E W56S S103A | 0.65 -0.06 -0.21 -0.25 0.00 0.03 | 0.03 | 1/18 (3.93) |
| 27 | L102E | 4.20 ND ND ND ND ND | 4.20 | 0/18 |
| 28 | Y31W R34N | 1.64 3.09 1.35 1.83 1.43 1.89 | 1.87 | 0/18 |
| 29 | K24I R34E W56G | 0.38 0.08 0.52 0.75 1.05 0.37 | 0.53 | 0/18 |
| 30 | S26Q V29T L102F | ND ND 1.96 ND ND ND | 1.96 | 1/18 (1.68) |
| 31 | L30S K36S N37E Q96R S103D | ND ND 2.44 ND ND ND | 2.44 | 0/18 |
| 32 | Q27D Y31G R34T W56Q | 0.15 0.16 0.09 -0.03 -0.01 0.28 | 0.11 | 3/18 (3.67) |
| 33 | S26I Y31W N35L W56N A57C L100N | 1.76 2.09 1.22 2.14 1.28 1.81 | 1.72 | 2/18 (2.34) |

The first 4 variants above that were never detected:

changes,"log10 Kd, replicates","mean, log10 nM",signal with controls
T59W,ND ND ND ND ND ND,ND,0/18
Q27E N37G A57D Y97K,ND ND ND ND ND ND,ND,1/18 (1.67)
Q96T H98I,ND ND ND ND ND ND,ND,0/18
S38E S58Y,ND ND ND ND ND ND,ND,0/18

A sequence measured in both rounds can read differently, since the two assays cover different ranges. In the paper, a design with two or fewer of six values counts as a poor binder. Three control strains display no target. For all light chain designs, 4% of the pairings with them gave a signal, with a median of 2.64 and one signal in twenty below 1.59, so weak values seen in few replicates may be background. Also given: how often the same scFv was detected with the empty control strains, with their mean in brackets. The parent sequence was in this pool as ten entries: three were never detected, three once, and four in most replicates, with averages from 0.34 to 2.37.